Details: FIG. 6B

## CC(/C=C1\SC(=S)N(CC(=O)O)C1=O)=C\c1ccccc1 [choline hydrogen diepalrestat]
  solubility in water compared with epalrestat free acid: greater solubility in water than the free acid
